From US20240009191A1, “METHOD AND COMPOSITION FOR THE TREATMENT OF DISEASE” (DIMERIX BIOSCIENCE PTY LTD, priority 2019, published 2024)

Amino acid sequences for entries named in this document (tags omitted).
UniProt P25025, whole entry: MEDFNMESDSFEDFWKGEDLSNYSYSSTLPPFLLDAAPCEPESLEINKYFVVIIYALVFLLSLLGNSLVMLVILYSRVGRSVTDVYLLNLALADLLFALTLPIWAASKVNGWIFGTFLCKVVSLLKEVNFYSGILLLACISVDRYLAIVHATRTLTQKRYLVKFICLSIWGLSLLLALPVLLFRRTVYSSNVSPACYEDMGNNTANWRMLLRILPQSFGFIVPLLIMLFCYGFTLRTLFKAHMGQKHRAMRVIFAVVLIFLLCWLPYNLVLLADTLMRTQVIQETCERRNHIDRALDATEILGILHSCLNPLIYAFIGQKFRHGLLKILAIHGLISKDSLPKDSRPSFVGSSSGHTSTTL

Target: AT1R-CXCR2 heteromer (Homo sapiens, UniProt P25025+P30556)
Experiment: BRET Gi coupling, CXCR2/Rluc8, Venus/mGsi and HA-AT1R, pre-treatment with antagonists/inverse agonists
Format: cell-based
Conditions: FIGS. 6-15
Description: HEK293FT cells were seeded in 6-well plates at a density of approximately 700,000 cells/well and maintained at 37° C., 5% CO2 in Complete Media (DMEM containing 0.3 mg/ml glutamine, 100 IU/ml penicillin and 100 μg/ml streptomycin (Gibco/Thermo Fisher)) supplemented with 10% fetal calf serum (FCS; Bovogen). Transient transfections were carried out 24 h after seeding using FuGene6™ (Promega) according to manufacturer instructions. 24 h post-transfection, cells were washed with PBS, detached using 0.05% trypsin/0.53 mM EDTA, resuspended in HEPES-buffered phenol red free Complete Media containing 5% FCS and added to a poly-L-lysine-coated white 96-well microplate (Greiner Bio-One). 48 h post-transfection, bioluminescence resonance energy transfer (BRET) assays were carried out following pre-incubation of cells with EnduRen™ (Promega) at a final concentration of 30 μM, at 37° C., 5% CO2 for 2 h. BRET measurements were taken at 37° C. using the LUMlstar™ or CLARIOstar™ (BMG Labtech).
For antagonist/inverse agonist assays, cells were pre-incubated with EnduRen for 1.5 hours, followed by the addition of vehicle or antagonists/inverse agonists (10 μM) for another 30 minutes.
The BRET signal observed between interacting proteins is normalized by subtracting the background BRET ratio. […] In the following examples, the second calculation will be used and the signal is described as ligand-induced BRET′. Furthermore, for data shown in FIGS. 4 to 20, all data points in a given set are corrected relative to the final data point prior to agonist treatment, which is fixed to zero. In keys on FIGS. 7 to 20, “>” means “followed by after 50 minutes”, with agonists added at time zero on the x-axes.
Prior to agonist treatment (added at 0 minutes), a baseline BRET signal was recorded for each of the combinations for 20 minutes. Data were calculated as ligand-induced BRET relative to the ‘vehicle followed by vehicle’ (veh>veh) data set.

CCCc1nc(C(C)(C)O)c(C(=O)O)n1Cc1ccc(-c2ccccc2-c2nnn[nH]2)cc1 [olmesartan]
effect of CXCL8 only on CXCR2/Rluc8-Venus/mGsi BRET (10 nM CXCL8, 50 minutes after pre-treatment with antagonists/inverse agonists (10 μM)): not being altered | effect of CXCL8 and AngII combined on CXCR2/Rluc8-Venus/mGsi BRET (10 nM CXCL8 and 100 nM AngII, 50 minutes after pre-treatment with antagonists/inverse agonists (10 μM)): indistinguishable from that observed with CXCL8 only | effect of AngII only on CXCR2/Rluc8-Venus/mGsi BRET (100 nM AngII, 50 minutes after pre-treatment with antagonists/inverse agonists (10 μM)): completely inhibited
